Assay type in all cases: in vivo
What all share (details): 10 mg/kg orally or ip for 27 days from day 15, day 42

The subject of test [1] is Baf3 murine leukemia cells T315I. Nature of the test: Blast cell count in nude mice implanted with Baf3 T315I cells.
Test [2] concerns Baf3 murine leukemia cells M351T. Description: Blast cell count in nude mice implanted with Baf3 M351T cells.
Test [3] has as its system Baf3 murine leukemia cells Wt. Nature of the test: Blast cell count in nude mice implanted with Baf3 Wt cells.

Take `Cc1nc(Nc2ncc(C(=O)Nc3c(C)cccc3Cl)s2)cc(N2CCN(CCO)CC2)n1` [reference compound]: the “blast cell count, response to treatment” value is given as “no significant decrease in blast cell count” in test [1], “no significant decrease in blast cell count” in test [2] and “significant response” in test [3].

For the origin of these results see patent US7939541B2, “Intermediates and a process employing the intermediates for the preparation of (3-trifluoromethylsulfonyl)-N-[4-methyl-3-(4-pyridin-3yl-pyrimidin-2ylamino)-phenyl]-benzamide” (Natco Pharma Limited, priority 2004, dated 2011).
